Values of other authors in patent US12325866B2, “Systems and methods for growing cells in vitro” (Yissum Research Development Company of the Hebrew …, priority 2016, dated 2025).

System: cell growth
Details: cited from earlier work

N [Ammonia]
Concentration at which toxic and limiting cell growth: 5000 µM
